Data on one molecule can be found in ChEMBL document CHEMBL5620411, “Perspectives and new aspects of histone deacetylase inhibitors in the therapy of CNS diseases” (Eur J Med Chem, 2023).

Data set [1] is described as follows: in vivo. The conditions noted are these: C57BL/6, mouse, brain/plasma, ip, 20 mg/kg.
A short description of data set [2]: in vivo. The following applies: C57BL/6, mouse, brain/plasma, ip, 20 mg/kg. This is another data set of the same source.

In general, Kp refers to tissue or fluid exposure divided by exposure in the circulation.

The molecule `O=C(NO)c1ccc(CN2CCCc3cc(Cl)ccc32)cc1` gave a Kp at 1 h in “in vivo [1]” of 2.54. Besides, in “in vivo [2]”, the Kp at 4 h worked out at 4.54.
